Measured values published in patent publication US20250025465A1, “WT-IDH1 INHIBITION USING A COVALENT AND BRAIN-PENETRANT SMALL MOLECULAR INHIBITOR FOR FERROPTOSIS INDUCTION IN HIGH-GRADE GLIOMA” (Northwestern University, priority 2021, published 2025).

System: HGG glioma cells
Assay: SYTOX green staining of glioma cells (plasma membrane rupture, ferroptosis)
Type: cell-based
Details: co-treatment with 13i, FIG. 11A-C

With “alpha-ketoglutarate [reference compound]” the “rescue of 13i treatment effect by co-treatment” value was “rescued 13i treatment effect”.
